Laboratory results as given in ChEMBL document CHEMBL1156956, “Triazines incorporating (R)-3-methylmorpholine are potent inhibitors of the mammalian target of rapamycin (mTOR) with selectivity over PI3Kalpha” (Bioorg Med Chem Lett, 2010).

Assay: Selectivity ratio of IC50 for PI3Kalpha to IC50 for rat mTOR

Row | Compound | Ratio IC50
1 | C[C@@H]1COCCN1c1nc(-c2ccc(NC(=O)Nc3cccnc3)cc2)nc(N2CCOC[C@H]2C)n1 | 3010
2 | C[C@@H]1COCCN1c1nc(-c2ccc(NC(=O)Nc3ccc(N4CCN(C)CC4)nc3)cc2)nc(N2CCOC[C@H]2C)n1 | 489
3 | C[C@@H]1COCCN1c1nc(-c2ccc(NC(=O)Nc3ccc(N4CCN(C)CC4)cc3)cc2)nc(C2CCOCC2)n1 | 572
4 | C[C@@H]1COCCN1c1nc(-c2ccc(NC(=O)Nc3ccc(CN(C)C)cc3)cc2)nc(N2CCOC[C@H]2C)n1 | 204

Further lines, results first:

Row | Ratio IC50 | Compound
5 | 340 | C[C@@H]1COCCN1c1nc(-c2ccc(NC(=O)Nc3ccc(N4CCNCC4)cc3)cc2)nc(C2CCOCC2)n1
6 | 300 | C[C@@H]1COCCN1c1nc(-c2ccc(NC(=O)Nc3ccc(N4CCN(C)CC4)cc3)cc2)nc(N2CCOC[C@H]2C)n1
7 | 45 | C[C@@H]1COCCN1c1nc(-c2ccc(NC(=O)Nc3ccc(C(=O)N4CCN(C)CC4)cc3)cc2)nc(N2CCOC[C@H]2C)n1
8 | 237 | C[C@@H]1COCCN1c1nc(-c2ccc(NC(=O)Nc3ccc(N4CCC(N(C)C)CC4)cc3)cc2)nc(C2CCOCC2)n1
9 | 525 | C[C@@H]1COCCN1c1nc(-c2ccc(NC(=O)Nc3cccnc3)cc2)nc(N2C[C@@H]3C[C@H]2CO3)n1
